Experiments:
male rats [1] = assay: Blood creatinine in rats treated with kidney toxicants
male rats [2] = assay: BUN (blood urea nitrogen) in rats treated with kidney toxicants
[3] = gentamicin 20 mg/Kg/Day, Day 15
[4] = gentamicin 80 mg/Kg/Day, Day 15
[5] = gentamicin 240 mg/Kg/Day, Day 3
[6] = gentamicin 240 mg/Kg/Day, Day 9

Gentamicin
Creatinine (male rats [1]; gentamicin 20 mg/Kg/Day, Day 3): 0.4 mg/dL
Creatinine (male rats [1]; gentamicin 20 mg/Kg/Day, Day 9): 0.4 mg/dL
Creatinine (male rats [1]; [3]): 0.42 mg/dL
Creatinine (male rats [1]; gentamicin 80 mg/Kg/Day, Day 3): 0.4 mg/dL
Creatinine (male rats [1]; gentamicin 80 mg/Kg/Day, Day 9): 0.5 mg/dL
Creatinine (male rats [1]; [4]): 0.54 mg/dL
Creatinine (male rats [1]; [5]): 0.42 mg/dL
Creatinine (male rats [1]; [6]): 2.65 mg/dL
BUN (male rats [2]; gentamicin 20 mg/Kg/Day, Day 3): 14.8 µg/mL
BUN (male rats [2]; gentamicin 20 mg/Kg/Day, Day 9): 15.2 µg/mL
BUN (male rats [2]; [3]): 15.4 µg/mL
BUN (male rats [2]; gentamicin 80 mg/Kg/Day, Day 3): 14.2 µg/mL
BUN (male rats [2]; gentamicin 80 mg/Kg/Day, Day 9): 15.6 µg/mL
BUN (male rats [2]; [4]): 18.6 µg/mL
BUN (male rats [2]; [5]): 18.4 µg/mL
BUN (male rats [2]; [6]): 100 µg/mL
